Laboratory results from article PMC3183106 (Pharmacological research : the official journal of the …, 2011).
Like-named read-outs stand apart in the source and are kept apart here.

How the values were obtained:
[1] = mean ± SEM
[2] = mean ± SEM; remark: listed apart in the source

For `C[S+]([O-])CCCCNC(=S)SCC(N)C(=O)O` (centres unmarked) [SFN-Cys, SFN-cysteine], the “Percent of metabolite relative to total for respective ITC in the plasma” value ([1]; 12 hrs after broccoli sprouts, GSTP1 A/A (n=7)) was 3.44 ± 0.12%, the “Percent of metabolite relative to total for respective ITC in the plasma” value ([1]; 12 hrs after broccoli sprouts, GSTP1 A/G (n=5)) was 3.67 ± 0.31% and the “Percent of metabolite relative to total for respective ITC in the plasma” value ([1]; 12 hrs after broccoli supplement, GSTP1 A/A (n=7)) was 3.06 ± 0.18%. The “Percent of metabolite relative to total for respective ITC in the plasma” value ([1]; 12 hrs after broccoli supplement, GSTP1 A/G (n=5)) was 3.00 ± 0.18%, the “Percent of metabolite relative to total metabolites for respective ITC in urine” value ([2]; first 12 hrs after broccoli sprouts, GSTP1 A/A (n=7)) was 17.9 ± 1.37% and the “Percent of metabolite relative to total metabolites for respective ITC in urine” value ([2]; first 12 hrs after broccoli sprouts, GSTP1 A/G (n=5)) was 20.2 ± 2.69%. The “Percent of metabolite relative to total metabolites for respective ITC in urine” value ([2]; first 12 hrs after broccoli supplement, GSTP1 A/A (n=7)) was 14.1 ± 1.06% and the “Percent of metabolite relative to total metabolites for respective ITC in urine” value ([2]; first 12 hrs after broccoli supplement, GSTP1 A/G (n=5)) was 16.5 ± 0.50%.
